Test results taken from PubChem BioAssay (NCI).
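In this assay, cells in 96-well plates receive the compound at five concentrations for 48 hours. Endpoints are linearly interpolated between the surrounding concentrations. Here, GI50 denotes the concentration required for 50% inhibition of growth. TGI is the concentration that stops growth completely.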

Key:
Experiment in all cases: inhibition of tumour cell growth, NCI panel, 48 h
A549 NSCLC = tested on: A549 NSCLC
HCT-116 colon = tested on: HCT-116 colon
SF-268 CNS = tested on: SF-268 CNS
HOP-62 NSCLC = tested on: HOP-62 NSCLC
NCI-H460 lung = tested on: NCI-H460 lung
PC-3 prostate = tested on: PC-3 prostate
HCC-2998 colon = tested on: HCC-2998 colon
SK-MEL-5 melanoma = tested on: SK-MEL-5 melanoma
NCI/ADR-RES ovarian = tested on: NCI/ADR-RES ovarian
NCI-H226 lung = tested on: NCI-H226 lung
HOP-92 NSCLC = tested on: HOP-92 NSCLC
HL-60(TB) leukemia = tested on: HL-60(TB) leukemia
T-47D breast = tested on: T-47D breast
COLO 205 colon = tested on: COLO 205 colon
HT29 colon = tested on: HT29 colon
ACHN renal = tested on: ACHN renal
DU-145 prostate = tested on: DU-145 prostate
RXF 393 renal = tested on: RXF 393 renal
MOLT-4 leukemia = tested on: MOLT-4 leukemia
SF-295 CNS = tested on: SF-295 CNS
TK-10 renal = tested on: TK-10 renal
SF-539 CNS = tested on: SF-539 CNS
MDA-MB-231 breast = tested on: MDA-MB-231 breast
KM12 colon = tested on: KM12 colon
786-0 renal = tested on: 786-0 renal
MDA-N = tested on: MDA-N
K-562 leukemia = tested on: K-562 leukemia
NCI-H322M lung = tested on: NCI-H322M lung
MALME-3M melanoma = tested on: MALME-3M melanoma
CCRF-CEM leukemia = tested on: CCRF-CEM leukemia
SK-OV-3 ovarian = tested on: SK-OV-3 ovarian
UO-31 renal = tested on: UO-31 renal
SW-620 colon = tested on: SW-620 colon
NCI-H23 lung = tested on: NCI-H23 lung
HS 578T breast = tested on: HS 578T breast
OVCAR-4 ovarian = tested on: OVCAR-4 ovarian
OVCAR-3 ovarian = tested on: OVCAR-3 ovarian
IGROV1 ovarian = tested on: IGROV1 ovarian
OVCAR-5 ovarian = tested on: OVCAR-5 ovarian
EKVX NSCLC = tested on: EKVX NSCLC
SNB-75 CNS = tested on: SNB-75 CNS
SK-MEL-2 melanoma = tested on: SK-MEL-2 melanoma
UACC-257 melanoma = tested on: UACC-257 melanoma
MCF7 breast = tested on: MCF7 breast
SNB-19 CNS = tested on: SNB-19 CNS
SR leukemia = tested on: SR leukemia
SN12C renal = tested on: SN12C renal
MDA-MB-435 = tested on: MDA-MB-435
HCT-15 colon = tested on: HCT-15 colon
SK-MEL-28 melanoma = tested on: SK-MEL-28 melanoma
U251 CNS = tested on: U251 CNS
RPMI-8226 leukemia = tested on: RPMI-8226 leukemia
CAKI-1 renal = tested on: CAKI-1 renal
LOX IMVI melanoma = tested on: LOX IMVI melanoma
OVCAR-8 ovarian = tested on: OVCAR-8 ovarian
UACC-62 melanoma = tested on: UACC-62 melanoma
M14 melanoma = tested on: M14 melanoma

With `O=[N+]([O-])C1([N+](=O)[O-])CCC([N+](=O)[O-])([N+](=O)[O-])c2nn(-c3ccccc3)nc21` the GI50 (A549 NSCLC) was 19.6 µM, the TGI (A549 NSCLC) was 59.5 µM and the GI50 (HCT-116 colon) was 13.7 µM. The TGI (HCT-116 colon) was 30 µM, the GI50 (SF-268 CNS) was 16.2 µM and the TGI (SF-268 CNS) was 35.4 µM. For the same compound, the GI50 (HOP-62 NSCLC) was 17.6 µM, the TGI (HOP-62 NSCLC) was 38 µM and the GI50 (NCI-H460 lung) was 16.8 µM. For the same compound, the TGI (NCI-H460 lung) was 39.8 µM, the GI50 (PC-3 prostate) was 16.3 µM and the TGI (PC-3 prostate) was 31 µM. It also gave a GI50 (HCC-2998 colon) of 19 µM, a TGI (HCC-2998 colon) of 35.7 µM and a GI50 (SK-MEL-5 melanoma) of 15 µM. It also gave a TGI (SK-MEL-5 melanoma) of 28.7 µM, a GI50 (NCI/ADR-RES ovarian) of 21.6 µM and a TGI (NCI/ADR-RES ovarian) of 53.4 µM. It also gave a GI50 (NCI-H226 lung) of 14.1 µM, a TGI (NCI-H226 lung) of 29.1 µM and a GI50 (HOP-92 NSCLC) of 13.3 µM. It also gave a TGI (HOP-92 NSCLC) of 27.4 µM, a GI50 (HL-60(TB) leukemia) of 4.01 µM and a TGI (HL-60(TB) leukemia) of 24.6 µM. The GI50 (T-47D breast) was 18.7 µM, the TGI (T-47D breast) was 52.8 µM and the GI50 (COLO 205 colon) was 16.5 µM. For the same compound, the TGI (COLO 205 colon) was 33 µM, the GI50 (HT29 colon) was 4.77 µM and the TGI (HT29 colon) was 21.3 µM. It also gave a GI50 (ACHN renal) of 24.7 µM, a TGI (ACHN renal) of 60.7 µM and a GI50 (DU-145 prostate) of 21 µM. The TGI (DU-145 prostate) was 44.2 µM, the GI50 (RXF 393 renal) was 13.8 µM and the TGI (RXF 393 renal) was 27.7 µM. The GI50 (MOLT-4 leukemia) was 3.41 µM, the TGI (MOLT-4 leukemia) was 25.9 µM and the GI50 (SF-295 CNS) was 20.9 µM. For the same compound, the TGI (SF-295 CNS) was 46.5 µM, the GI50 (TK-10 renal) was 20.5 µM and the TGI (TK-10 renal) was 37.1 µM. It also gave a GI50 (SF-539 CNS) of 18.9 µM, a TGI (SF-539 CNS) of 36.9 µM and a GI50 (MDA-MB-231 breast) of 14.5 µM. For the same compound, the TGI (MDA-MB-231 breast) was 28.5 µM, the GI50 (KM12 colon) was 14.2 µM and the TGI (KM12 colon) was 28.7 µM. The GI50 (786-0 renal) was 14.4 µM, the TGI (786-0 renal) was 28.1 µM and the GI50 (MDA-N) was 6.17 µM. It also gave a TGI (MDA-N) of 19.3 µM, a GI50 (K-562 leukemia) of 4.28 µM and a TGI (K-562 leukemia) greater than 100 µM. The GI50 (NCI-H322M lung) was 19.8 µM, the TGI (NCI-H322M lung) was 41.5 µM and the GI50 (MALME-3M melanoma) was 18.1 µM. It also gave a TGI (MALME-3M melanoma) of 37.4 µM, a GI50 (CCRF-CEM leukemia) of 7 µM and a TGI (CCRF-CEM leukemia) of 93 µM. The GI50 (SK-OV-3 ovarian) was 28.6 µM, the TGI (SK-OV-3 ovarian) was 88.1 µM and the GI50 (UO-31 renal) was 20.5 µM. The TGI (UO-31 renal) was 34.8 µM, the GI50 (SW-620 colon) was 14 µM and the TGI (SW-620 colon) was 34.4 µM. The GI50 (NCI-H23 lung) was 13.2 µM, the TGI (NCI-H23 lung) was 29.3 µM and the GI50 (HS 578T breast) was 25.9 µM. It also gave a TGI (HS 578T breast) of 60.1 µM, a GI50 (OVCAR-4 ovarian) of 15.5 µM and a TGI (OVCAR-4 ovarian) of 39.7 µM. For the same compound, the GI50 (OVCAR-3 ovarian) was 14.8 µM, the TGI (OVCAR-3 ovarian) was 28.1 µM and the GI50 (IGROV1 ovarian) was 18.8 µM. The TGI (IGROV1 ovarian) was 41.3 µM, the GI50 (OVCAR-5 ovarian) was 22.2 µM and the TGI (OVCAR-5 ovarian) was 37 µM. The GI50 (EKVX NSCLC) was 32.2 µM, the TGI (EKVX NSCLC) was 92 µM and the GI50 (SNB-75 CNS) was 17.4 µM. It also gave a TGI (SNB-75 CNS) of 38.4 µM, a GI50 (SK-MEL-2 melanoma) of 21 µM and a TGI (SK-MEL-2 melanoma) of 50.3 µM. For the same compound, the GI50 (UACC-257 melanoma) was 15 µM, the TGI (UACC-257 melanoma) was 30.2 µM and the GI50 (MCF7 breast) was 17.1 µM. For the same compound, the TGI (MCF7 breast) was 34.7 µM, the GI50 (SNB-19 CNS) was 30 µM and the TGI (SNB-19 CNS) was 77.9 µM. For the same compound, the GI50 (SR leukemia) was 3.67 µM, the TGI (SR leukemia) was greater than 100 µM and the GI50 (SN12C renal) was 12.4 µM. It also gave a TGI (SN12C renal) of 25 µM, a GI50 (MDA-MB-435) of 6.8 µM and a TGI (MDA-MB-435) of 20.5 µM. The GI50 (HCT-15 colon) was 12.7 µM, the TGI (HCT-15 colon) was 26.2 µM and the GI50 (SK-MEL-28 melanoma) was 17.6 µM. For the same compound, the TGI (SK-MEL-28 melanoma) was 38.1 µM, the GI50 (U251 CNS) was 17.3 µM and the TGI (U251 CNS) was 35.1 µM. For the same compound, the GI50 (RPMI-8226 leukemia) was 5.26 µM, the TGI (RPMI-8226 leukemia) was 37.8 µM and the GI50 (CAKI-1 renal) was 40.4 µM. The TGI (CAKI-1 renal) was 66 µM, the GI50 (LOX IMVI melanoma) was 7.25 µM and the TGI (LOX IMVI melanoma) was 21.3 µM. For the same compound, the GI50 (OVCAR-8 ovarian) was 25.1 µM, the TGI (OVCAR-8 ovarian) was 89.9 µM and the GI50 (UACC-62 melanoma) was 18 µM. The TGI (UACC-62 melanoma) was 40.6 µM, the GI50 (M14 melanoma) was 12.1 µM and the TGI (M14 melanoma) was 27.8 µM.
